Source: ChEMBL document CHEMBL1126886, “Synthesis of 5-methyl-5-deaza nonclassical antifolates as inhibitors of dihydrofolate reductases and as potential antipneumocystis, antitoxoplasma, and antitumor agents” (J Med Chem, 1993)

Biological target: T1, Bifunctional dihydrofolate reductase-thymidylate synthase (Toxoplasma gondii, UniProt Q07422)
T1 sequence (Q07422 whole entry): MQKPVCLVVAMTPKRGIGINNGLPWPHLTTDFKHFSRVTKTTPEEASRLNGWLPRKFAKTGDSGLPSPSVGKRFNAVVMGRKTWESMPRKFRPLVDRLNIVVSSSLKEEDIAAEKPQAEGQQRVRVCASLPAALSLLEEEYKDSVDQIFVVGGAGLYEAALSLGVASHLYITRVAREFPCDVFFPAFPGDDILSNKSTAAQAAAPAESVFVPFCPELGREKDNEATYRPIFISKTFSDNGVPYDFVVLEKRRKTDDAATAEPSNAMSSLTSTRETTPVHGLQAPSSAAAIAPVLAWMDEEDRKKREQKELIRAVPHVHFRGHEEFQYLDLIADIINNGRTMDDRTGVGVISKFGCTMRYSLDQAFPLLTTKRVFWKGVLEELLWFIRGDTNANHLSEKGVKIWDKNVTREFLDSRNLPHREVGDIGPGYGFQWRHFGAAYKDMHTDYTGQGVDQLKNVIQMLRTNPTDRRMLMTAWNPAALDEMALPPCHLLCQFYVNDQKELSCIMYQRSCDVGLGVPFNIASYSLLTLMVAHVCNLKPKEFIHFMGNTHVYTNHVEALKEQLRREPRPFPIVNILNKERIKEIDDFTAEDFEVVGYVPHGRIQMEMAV
Assay: Inhibition of Toxoplasma gondii dihydrofolate reductase

`COc1cc(N(C)Cc2cnc3nc(N)nc(N)c3c2C)cc(OC)c1OC` was tested, and the IC50 was 0.58 nM.
